This passage reports IC50 results from publication PMC7795171, “In Silico and In Vitro Analysis of Major Cannabis-Derived Compounds as Fatty Acid Amide Hydrolase Inhibitors” (Molecules, 2020).

Protein sequences, listed by entry. Tags and fused reporters are not part of them.
UniProt P97612, whole entry: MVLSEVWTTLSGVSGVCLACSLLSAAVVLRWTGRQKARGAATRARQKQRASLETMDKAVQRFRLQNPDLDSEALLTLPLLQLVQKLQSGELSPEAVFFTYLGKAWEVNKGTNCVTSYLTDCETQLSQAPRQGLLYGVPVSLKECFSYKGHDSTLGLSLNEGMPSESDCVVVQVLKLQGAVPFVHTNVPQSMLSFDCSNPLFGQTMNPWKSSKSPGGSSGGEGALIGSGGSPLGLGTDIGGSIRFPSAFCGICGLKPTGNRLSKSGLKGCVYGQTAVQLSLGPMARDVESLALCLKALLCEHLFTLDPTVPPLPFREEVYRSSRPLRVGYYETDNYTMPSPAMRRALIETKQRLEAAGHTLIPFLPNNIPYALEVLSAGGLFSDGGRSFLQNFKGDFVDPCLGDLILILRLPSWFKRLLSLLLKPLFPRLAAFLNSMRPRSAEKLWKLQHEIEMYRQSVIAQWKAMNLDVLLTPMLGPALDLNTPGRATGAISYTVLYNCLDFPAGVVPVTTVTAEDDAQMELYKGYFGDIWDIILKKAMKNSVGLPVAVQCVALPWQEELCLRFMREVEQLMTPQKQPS

The target of the assay is T1, rFAAH (Rattus norvegicus, UniProt P97612).
T1 construct: from tissue; host or cells: rat brain membranes
Description: FAAH activity assay, rat brain membranes, [14C]AEA hydrolysis. To be noted: 10 µM [14C]AEA, 37 °C, 15 min, pH 9.0, dose-response 0–100 µM, read-out: IC50 Towards rFAAH. It is filed as biochemical. On the procedure: Rat brains were homogenized in 50 mM Tris-HCl (50 mM, pH 7.4), and were centrifuged sequentially at 800× g and 20,000× g; then, the supernatants were discharged, and rFAAH activity was tested in membrane preparations incubated with 10 µM [^14C]AEA at 37 °C for 15 min (pH = 9.0). The reaction was stopped with a 1:1 (v/v) mixture of chloroform/methanol and the release of [^14C]ethanolamine in the aqueous phase was measured as reported. Purified human FAAH was assayed in the same way as rFAAH.

SMILES strings stand for the structures.

With `C=C(C)[C@@H]1CCC(C)=C[C@H]1c1c(O)cc(CCCCC)cc1O` [CBD, cannabidiol, reference compound], the 50% inhibitory concentration (IC50) turned out to be 43.5 ± 1.5 µM.

One may read the IC50 as the point on the concentration scale where inhibition reaches its midpoint.
